Measurements as given in patent US8969312B2, “Low side effect pharmaceutical composition containing antituberculosis drugs” (priority 2011, dated 2015).

Amino acid sequences for entries named in this document (tags omitted). A change or cut given only in a name is not applied to a line headed by its entry.
UniProt P05181: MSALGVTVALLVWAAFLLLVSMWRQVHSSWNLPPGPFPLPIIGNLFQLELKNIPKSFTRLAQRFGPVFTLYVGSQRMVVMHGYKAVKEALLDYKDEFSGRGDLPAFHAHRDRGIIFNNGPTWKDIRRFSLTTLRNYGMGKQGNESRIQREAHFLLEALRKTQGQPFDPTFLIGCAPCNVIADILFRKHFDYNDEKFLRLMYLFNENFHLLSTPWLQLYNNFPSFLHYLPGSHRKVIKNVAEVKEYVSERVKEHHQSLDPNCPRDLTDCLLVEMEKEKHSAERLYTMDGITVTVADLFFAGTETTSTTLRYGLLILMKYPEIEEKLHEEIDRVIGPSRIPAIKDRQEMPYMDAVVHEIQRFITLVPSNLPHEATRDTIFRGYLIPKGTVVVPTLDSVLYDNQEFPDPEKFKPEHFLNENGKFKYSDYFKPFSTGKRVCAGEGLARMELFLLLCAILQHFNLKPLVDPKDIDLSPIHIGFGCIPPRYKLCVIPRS

Assays:
[1] = biological target: human liver microsomal cytochrome P450 2E1 (CYP2E1) (Homo sapiens, UniProt P05181); test: Human liver microsomal CYP2E1, chlorzoxazone 6-hydroxylation; conditions: for Minimum Effective Dose: Table 7;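 on all read-outs here: chlorzoxazone added as substrate, 6-hydroxychlorzoxazone formation quantified by LC/MS/MS after 30 min at 37 °C with NADP+ regenerating system, compared against solvent control without test sample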
amidase = test: Mouse liver microsomal amidase, isoniazid to isonicotinic acid; type: biochemical

OCc1ccccc1 [Benzyl alcohol]
Minimum Effective Dose [1]: 158 mg

OC[C@@H](O)[C@@H](O)[C@H](O)[C@@H](O)CO [Sorbitol]
Minimum Effective Dose [1]: 158 mg

O=c1c(O)c(-c2ccc(O)cc2)oc2cc(O)cc(O)c12 [Kaempferol]
Amidase inhibition (amidase; 1 uM): 7.3 ± 8.2% | Amidase inhibition (amidase; 10 uM): 25.3 ± 7.8% | Amidase inhibition (amidase; 100 uM): 49.1 ± 8.6%

Oc1cc(O)c2c(c1)O[C@@H](c1ccc(O)c(O)c1)[C@@H](O)C2 [(+)-Epicatechin]
Inhibition of CYP 2E1 ([1]; 66 μM): 44.32 ± 1.25%
